PubChem BioAssay AID903 (National Center for Advancing Translational Sciences (NCATS), 2007)
The list shows a part of the results, in another mix than the full data. Some of these compounds have results that are not shown, active ones among them. Results filed as inconclusive are left out. Calls of active or inactive are those of the source. Calls come from the whole dose curve; as a rule, active = well fitted cell-killing curve with a large enough effect; inconclusive = small, poorly fitted or top-dose-only effect; inactive = no such curve, though single readings can be large or run the other way.

Experiment: qHTS Screen for Compounds that Selectively Target Cancer Cells with p53 Mutations: Cytotoxicity of p53 Null Cells at the Permissive Temperature;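 note: 0% = DMSO only and -100% = full killing by 100 µM tamoxifen; nearly all actives have a fitted effect of over 55% in size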
Conditions: H1299-neo p53 null cells, ATP luminescence, 24 h, 32C; at 46.1 µM (top of the series)
Text: NIH Chemical Genomics Center [NCGC] NIH Molecular Libraries Screening Centers Network [MLSCN] MLSCN Grant: 1 X01 MH079844-01 Assay Submitter (PI): Dr. SUN, YI, University of Michigan NCGC Assay Overview: Synthetic Lethal Screen for Compounds to Kill Cancer Cells with p53 Mutation. Tumor suppressor gene p53 serves as a major cellular barrier against tumorigenesis. […] The goal of this screening is to identify small molecule probes that selectively kill cancer cells with mutations in p53. This screening was carried out using two lines of H1299 lung cancer cells. The H1299-p53 A138V line express a temperature sensitive p53 mutant (p53ts) in which the mutant p53 protein (A138V) is in the mutant confirmation when grown at 39C (the nonpermissive temperature) and in the wild type conformation when grown at 32C (the permissive temperature). A H1299-neo line (p53 null) grown at both 39C and 32C were used as counter-screens to filter out false positive associated with temperature shifting. The small molecular compounds that selectively target mutant p53-containing cancer cells were selected as candidate probes for further study. A cytotoxicity assay based on the measurement of ATP contents in cells was used in this screen. Concentration-responses of all the compounds in the library collection were determined in qHTS using the cell lines and temperature conditions as above.
NCGC Assay Protocol Summary: Both the H1299-p53A138V and H1299-neo cell lines were provided by Dr.Yi Sun, a PI at the University Michigan. The cells were maintained and cultured at 37C. The resuspended frozen cells were used to plate the cells in the 1536-well assay plates at a density of 600 cells per well in 5 ul medium. The assay plates with the cells were incubated at 37C for 16 to 30 hours before the experiments. The library compounds in DMSO solution were added to the cells in assay plates and incubated 24 hours at 39C (for mutant p53 conformation) or 32C (for normal p53 conformation as control). An ATP_lite assay kit (PerkinElmer) was used to determine the cell viability. Tomaxifen (100uM) was used as the positive control for cell killing. Data were normalized to the controls for basal activity (DMSO only) and 100% killing (100uM tamoxifen). AC50 values were determined from concentration-response data modeled with the standard Hill equation. P53 assay protocol: 1. Reagent; 5 uL H1299-p53A138V or H1299-neo cell cells/well 2. Time; overnight; 37C incubation 3. Compounds; 23 nL; 5.9 nM to 46 uM 4. Controls; 23 nL; Tamoxifen 100 uM 5. Time; 24 hr; 32C incubation 6. Reagent; 3 uL; ATP_Lite reagent 7. Time; 20 min; Room Temperature 8. Detection; Luminescence; Viewlux plate reader Keywords: p53, synthetic lethal, cancer, cell viability, cytotoxicity, H1299 cell line, luminescence, MLSMR, MLSCN, NIH Roadmap, qHTS, NCGC

SMILES	activity change, negative = cytotoxicity
CC(C)Oc1ccc(C(=O)NCC2(N(C)C)CCCCC2)cc1	inactive: 6.43%
COc1cc(C(=O)NCC2(N(C)C)CCCCC2)cc(OC)c1OC	inactive: -1.41%
Cc1cccc(C(=O)NCC2(N(C)C)CCCCC2)c1	inactive: -5%
CC(C)COc1ccc(C(=O)NCC2(N(C)C)CCCCC2)cc1	inactive: 0.296%
COc1cccc(C(=O)NCC2(N3CCOCC3)CCCCC2)c1	inactive: 4.39%
COc1ccc(C(=O)NCC2(N(C)C)CCCCC2)cc1Cl	inactive: -1.34%
CCOc1cccc(C(=O)NCC2(N(C)C)CCCCC2)c1	inactive: 0.759%
CCCCOc1ccccc1C(=O)NCC1(N(C)C)CCCCC1	inactive: -1.62%
CN(C)C1CCCC1OC(=O)C(O)(c1ccccc1)c1ccccc1 (configuration not stated)	inactive: -4.11%
CN(C)C1(CNC(=O)c2ccccc2[N+](=O)[O-])CCCCC1	inactive: 3.29%
CN(C)C1(CNC(=O)c2ccccc2F)CCCCC1	inactive: -3.93%
CN(C)C1(CNC(=O)c2cccc(Cl)c2)CCCCC1	inactive: 0.394%
